# Rango complex inh: prevents formation of the Rango-importin beta complex; 340,000 tested, 0.031% active; Q14974; Potency, µM (series often up to 92.2 µM), for inactives: top-dose inhibition of complex formation; Rango CFP/YFP FRET sensor + importin beta, 45 min; calls by dose curve;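 further: potency means the concentration at half of the fitted maximal effect; 0% = DMSO wells and 100% = buffer wells lacking importin beta; nearly all actives have a fitted effect of over 15% in size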
#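 FRET biosensor (snurportin 1 IBB flanked by EYFP and cerulean), 50 nM, with compound 5 min, then 0.125 microM importin beta in PBS, 1 mM DTT, 0.02% Tween-20, 0.1% BSA. CFP/YFP ratio read after 45 min at room temperature; pre-read flags interference.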
# VDR inhibitor: blocks the human vitamin D receptor; Potency, µM, for inactives: max response, negative = inhibition, actives largely listed as inhibitors; AID 504847; 400,000 tested, 0.93% active; P11473; VDR-SRC2-3 peptide fluorescence polarization, 2 h; further: potency means the concentration at half of the fitted maximal effect; on the % scale 0 is the no-effect control and ±100 the full control effect
#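 VDR–SRC2-3 interaction, FP format. Cmpds 23 nl via pintool, brief spin, 2 h ambient incubation.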
# PI5P4Ka inh: blocks human PI5P4K alpha kinase activity. 330,000 tested, 1.2% active. P48426. PI5P4Kalpha enzyme, ADP-Glo luminescence, 60 min; hits give low values. AID 652105. max response, %; active means max response of -50% or lower; inconclusive means between -30% and -50%; inactive means -30% or higher; further: value at the top dose of about 77 µM; on the % scale 0 is the no-effect control and ±100 the full control effect
#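 Human PI5P4Kalpha with substrate in 0.038 M HEPES pH 7.4, 0.28 mM EGTA, 0.1% CHAPS, 5% DMSO; reaction started with 5 microM ATP (final), 60 min at room temperature. ADP formed read by ADP-Glo luminescence.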
# GCN5L2 inh: inhibitors of human GCN5L2 histone acetyltransferase | GCN5L2 HAT assay, ThioGlo1 CoA-SH fluorescence | 390,000 tested, 0.21% active | Q92830 | Potency, µM (titrated, usually from 58.9 µM), without a hit: top-dose activity change, negative = inhibition, actives largely listed as inhibitors; further: potency means the concentration at half of the fitted maximal effect; on the % scale 0 is the no-effect control and ±100 the full control effect
#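 Preincubate 20nM GCN5L2 with compound 15 min, RT → add 50uM ThioGlo1 + 75uM H3(1-25) + 70uM acetyl-CoA → read fluorescence 0 and 20 min. Primary qHTS; fluorescent artifacts likely.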
# PLK1 PBD inh: PLK1 (human) polo-box domain binding inhibition. P53350. Plk1 PBD binding of FITC phosphopeptide, fluorescence polarization. Potency, µM, inactives show max response, negative = inhibition, most hits filed as inhibitors. 360,000 tested, 2.8% active. AID 720504; further: potency means the concentration at half of the fitted maximal effect; series mostly up to about 57 µM; on the % scale 0 is the no-effect control and ±100 the full control effect; nearly all actives have a fitted effect of over 65% in size
# Rango dissoc inh: inhibitors of RanGTP-induced Rango-importin beta complex dissociation; O95149+P62826; Biochemical FRET Rango-importin beta, RanGTP-induced dissociation; Potency, µM (highest dose often 46.1 µM), without a hit: at the top dose activity change, negative = inhibition; 340,000 tested, 0.071% active; calls by dose curve; further: potency means the concentration at half of the fitted maximal effect; % of control where 0% means no effect; nearly all actives have a fitted effect of over 45% in size
#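 Rango/importin beta premix (0.1/0.25 uM final), PBS + 1 mM DTT + 0.02% Tween-20 + 0.1% BSA; cpd 5 min RT; FRET pre-read; + RanGTP-RCC1 (0.6 uM Ran, 2 mM GTP, 0.2 uM RCC1); 45 min RT; FRET post-read, ex 430, em 486/530 nm.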
# An asterisk follows results filed as active; ? = inconclusive; · = no result given; ! = not active in a repeat. The list is not random: actives were taken first. Their share in the collection is about 3.6%. Unless noted, the call rests on the fitted dose curve; in most records, active means well fitted curve in the direction sought with a large enough effect; inconclusive means small, poorly fitted or top-dose-only effect, or another doubt; inactive means no such curve, though single readings can be large; an effect the other way counts as inactive or inconclusive.
# The opening 3 compounds (preview)
SMILES,Rango complex inh,VDR inhibitor,PI5P4Ka inh,GCN5L2 inh,PLK1 PBD inh,Rango dissoc inh
CCc1ccccc1Nc1cc(C(=O)NC(C)c2ccccc2)c2ccccc2n1 (stereo not drawn),·,-17.9%,·,-9.1%,·,·
Cc1ccccc1Cn1ccn(-c2ccc(F)c(F)c2)c(=O)c1=O,·,23.6%,·,-18.8%,·,·
CCc1nn2c(=O)cc(COC(=O)c3ccccc3NC(=O)c3cccs3)nc2s1,·,12.2%,·,-5.1%,·,·

# All compounds of this part, from the start:
SMILES,Rango complex inh,VDR inhibitor,PI5P4Ka inh,GCN5L2 inh,PLK1 PBD inh,Rango dissoc inh
CCc1ccccc1Nc1cc(C(=O)NC(C)c2ccccc2)c2ccccc2n1 (stereo not drawn),·,-17.9%,·,-9.1%,·,·
Cc1ccccc1Cn1ccn(-c2ccc(F)c(F)c2)c(=O)c1=O,·,23.6%,·,-18.8%,·,·
CCc1nn2c(=O)cc(COC(=O)c3ccccc3NC(=O)c3cccs3)nc2s1,·,12.2%,·,-5.1%,·,·
COc1ccc(C(=O)C[n+]2cn(C(F)F)c3ccccc32)c(F)c1,3.8%,?,?,-10.2%,13.4µM*,22.3%
CCOc1ncccc1C(=O)Nc1ccc(Cl)cc1,0.0%,?,0.0,-3.6%,10.6µM*,-10.5%
CC1=C(C(=O)Nc2cccnc2)C(c2ccccc2)n2nc(SCc3ccccc3F)nc2N1 (stereo not drawn),·,-16.9%,·,-0.4%,·,·
N#CC1(NC(=O)COC(=O)c2cc(O)c3ccccc3c2O)CCCCC1,0.8%,44.7µM*,?,0.9%,6.7µM*,-18.0%
N#CC1(NC(=O)COC(=O)c2ccccc2[N+](=O)[O-])CCCCC1,-0.4%,-0.9%,3.0,-0.4%,-3.9%,2.3%
Cc1cccc(N2C(N)=NC(N)=NC23CCCCC3)c1,3.6%,-25.3%,-62.7*,-1.3%,2.67µM*,2.9%
Cc1ccc(Cl)cc1N1CCN(C(=O)CCS(=O)(=O)c2ccc3c(c2)oc(=O)n3C)CC1,·,9.4%,·,3.5%,·,·
COC(=O)c1sccc1S(=O)(=O)N(CC(=O)NCc1ccc(F)cc1)c1ccc(C)c(C)c1,·,-5.7%,·,-0.8%,·,·
COC(C[C@@H]1O[C@@H]1[C@H](O)[C@H](C)OCc1ccccc1)OC,0.1%,-25.4%,-85.6*,-16.3%,-11.1%,10.2%
CCOC(=O)c1nc(NCc2ccccc2)sc1C,1.5%,70.8µM*,?,-18.8%,6.7µM*,5.5%
CC(=O)Oc1c(/C=C(\C#N)C(N)=O)[nH]c2ccccc12,?,-7.0%,-58.8*,4.0%,-14.5%,?
CC(=O)N[C@H]1CSSC[C@@H](C(=O)N2CCC[C@H]2C(=O)N2CCC[C@H]2C(=O)N[C@@H](CCCCN)C(=O)N[C@@H](CC(=O)O)C(N)=O)NC(=O)CNC(=O)[C@H](Cc2c[nH]c3ccccc23)NC(=O)[C@H](CCCNC(=N)N)NC(=O)[C@@H](Cc2ccc(Cl)c(Cl)c2)NC(=O)[C@H](Cc2cnc[nH]2)NC(=O)[C@H](CCC(=O)O)NC1=O,·,-7.2%,·,8.1%,·,·
c1ccc(CNc2oc(-c3ccccc3)nc2-c2ccccc2)cc1,·,14.1µM*,·,·,·,·
O=C(CC1N=C2c3ccccc3N=C(SCc3ccccc3F)N2C1=O)NCc1ccc2c(c1)OCO2 (stereo not drawn),·,13.1%,·,-9.3%,·,·
CC1=C(c2ccc(C)cc2)S(=O)(=O)NC1=NCCCN1CCN(c2ccccc2F)CC1,·,5.2%,·,-2.2%,·,·
COC(=O)c1ccc(CSc2nc3c(cnn3-c3ccc(C)c(C)c3)c(=O)[nH]2)o1,3.2%,-19.3%,3.1,-3.0%,26.7µM*,-8.1%
CC(C)C(Cl)=NOC(=O)Nc1ccc(F)cc1,?,?,7.1,·,13.4µM*,-10.4%
COc1ccc(CCN2C(=O)CN(C3CCC(C)CC3)C(=O)C2c2ccc(OC(C)C)c(OC)c2)cc1OC (stereo not drawn),·,10.9%,·,-15.4%,·,·
COC(=O)CN1C(=O)CSc2ccc(S(=O)(=O)Nc3cccc(C)c3)cc21,·,19.1%,·,-0.8%,·,·
CCCc1nc(SCC(=O)c2ccc3c(c2)NC(=O)CO3)[nH]c(=O)c1CC,5.1%,?,-20.4,·,18.9µM*,3.0%
CCC(=O)c1ccc(OCC(=O)c2ccc3c(c2)NC(=O)CO3)cc1,-0.9%,-3.3%,-0.3,-0.3%,?,-14.0%
CCCc1cc(=O)[nH]c(SCC(=O)c2ccc3c(c2)NC(=O)CO3)n1,1.2%,?,-16.0,-4.3%,-7.0%,7.1%

# Exported with the structure last: two of the compounds above
Rango complex inh	VDR inhibitor	PI5P4Ka inh	GCN5L2 inh	PLK1 PBD inh	Rango dissoc inh	Structure
·	5.2%	·	-2.2%	·	·	CC1=C(c2ccc(C)cc2)S(=O)(=O)NC1=NCCCN1CCN(c2ccccc2F)CC1
3.2%	-19.3%	3.1	-3.0%	26.7µM*	-8.1%	COC(=O)c1ccc(CSc2nc3c(cnn3-c3ccc(C)c(C)c3)c(=O)[nH]2)o1

# The list goes on:
SMILES,Rango complex inh,VDR inhibitor,PI5P4Ka inh,GCN5L2 inh,PLK1 PBD inh,Rango dissoc inh
CCc1ccc(OCC(=O)OCC(=O)c2ccc3c(c2)NC(=O)CO3)cc1,1.2%,13.3%,·,0.4%,3.7%,-8.8%
O=C1COc2ccc(C(=O)CCl)cc2N1,2.6%,-14.9%,-1.1,-3.8%,1.89µM*,0.0%
CCCCCCC(=O)OCC(=O)c1ccc2c(c1)NC(=O)CO2,-2.5%,-5.4%,1.9,-7.3%,9.47µM*,-15.3%
Cc1nc2ccc([N+](=O)[O-])cc2c(=O)n1Cc1ccc(F)cc1,-1.6%,-12.1%,-0.5,-1.8%,?,7.0%
Cc1ccccc1Cn1c(C)nc2ccc([N+](=O)[O-])cc2c1=O,58µM*,-3.9%,-2.4,-9.9%,-5.7%,0.5%
CC(=O)C1=C(O)C(=O)N(c2ccc(S(N)(=O)=O)cc2)C1c1cccc([N+](=O)[O-])c1 (stereo not drawn),-3.6%,-14.6%,-10.5,-9.7%,26.7µM*,?
CC(=O)C1=C(O)C(=O)N(c2ccc(C)cc2)C1c1ccc([N+](=O)[O-])cc1 (stereo not drawn),0.3%,-4.2%,0.3,-15.0%,26.7µM*,-0.3%
CCOC(=O)C1=C(O)C(=O)N(c2ccc(S(N)(=O)=O)cc2)C1c1cccc([N+](=O)[O-])c1 (stereo not drawn),-1.5%,-7.9%,-7.0,-0.1%,-4.4%,24.3%
CCOC(=O)C1=C(O)C(=O)N(c2ccc(S(N)(=O)=O)cc2)C1c1ccc([N+](=O)[O-])cc1 (stereo not drawn),1.9%,-25.6%,-16.2,1.1%,29.9µM*,17.9%
CCOC(=O)N1CCC(NC(=O)c2ccc3c(c2)N(Cc2ccccc2)C(=O)c2ccccc2S3(=O)=O)CC1,·,-20.6%,·,-0.7%,·,·
Cc1cc2oc(C(=O)Nc3ccc(S(N)(=O)=O)cc3)cc(=O)c2cc1C,·,-6.8%,·,-2.9%,·,·
CCOC(=O)c1cc2c(=O)n3cccc(C)c3nc2n(CCCOC)c1=NC(=O)c1cccnc1,?,-5.6%,6.6,2.9%,-9.1%,?
CCOCCCn1c(=NC(=O)c2cccnc2)c(C(=O)OCC)cc2c(=O)n3ccccc3nc21,?,?,27.6,-14.1%,18.9µM*!,?
CCOc1ccc(CCNC(=O)c2cn(CC)c3ccc(S(=O)(=O)N4CCCCCC4)cc3c2=O)cc1OCC,·,1.6%,·,-16.3%,·,·
CSc1ncccc1C(=O)OCC(=O)c1ccc(Br)s1,0.0%,-27.3%,-9.4,-8.7%,18.9µM*,-4.6%
CCc1ccc(NC(=O)CN2C(=O)C(c3ccc(Cl)cc3)=NC23CCCCC3)cc1,·,-2.1%,·,-19.9%,·,·
COc1cc(NC(=O)CCc2nc3cccnc3n2Cc2cccs2)cc(OC)c1OC,·,-18.9%,·,-6.7%,·,·
O=C1CC(c2nc3ccccc3n2CCCOc2ccccc2)CN1c1ccc(F)cc1 (stereo not drawn),·,16.7%,·,-11.3%,·,·
CCOc1ccccc1NC(=O)CSc1nnc(-c2ccncc2)o1,0.3%,?,-14.0,2.3%,?,-5.0%
